Data from patent US10149876B2, “Tripterygium wilfordii extracts to overcome chemotherapy resistance” (WESTERN UNIVERSITY OF HEALTH SCIENCES, priority 2012, dated 2018).

Tests used:
Assay type in all cases: cell-based, human
K562 cells = test: SRB cell viability assay, daunorubicin-sensitive K562 cells; settings: 72 h, pre-treated with 25 μg/ml LGT-E, background = 0.044
Description: (§1) Cell culture of the above cell lines was performed as described in Example 2, except that 5,000, rather than 3,000 cells were plated per well for the K562, K562/Dox, BT474, SkBr3 lines.
(§2) The chemotherapeutic drugs that were tested for chemosensitization in combination with LTG-E were docetaxel, daunorubicin, Herceptin®, and lapatinib. […] Table 17 also contains the serially-diluted concentrations of drugs that each cell line was tested against.
Using the cell culture methods described in Example 2, the chemosensitizing effect of LTG-E on daunorubicin-treated K562 cells was studied. […] Table 36 reports the cell viability data relating to pre-treatment with LTG-E prior to daunorubicin treatment. Table 37 reports control data obtained from cells that were not pre-treated with LGT-E prior to daunorubicin treatment. FIG. 15 summarizes the data of Tables 36 and 37 in a graphical format.

K562/Dox cells = test: SRB cell viability assay, daunorubicin-resistant K562/Dox cells; settings: Docetaxel 33.3 nM (so in the source), 72 h, no LGT-E pre-treatment; background = 0.043
SkBr3-TxR cells = test: SRB cell viability assay, lapatinib-resistant SkBr3-TxR cells
Description: (§3) FIG. 13 summarizes the data of Tables 32-33 in a graphical format.
Using the cell culture methods described in Examples 2, with the exception that 5000 SkBr3-TxR cells were plated per well, the chemosensitizing effect of LGT-E on lapatinib-treated SkBr3-TxR cells was studied. […] FIG. 14 summarizes the data of Tables 34 and 35 in a graphical format.

SkBr3 cells = test: SRB cell viability assay, lapatinib-sensitive SkBr3 cells; settings: Lapatinib 0.02 μM, no chemosensitizing pre-treatment; background = 0.047
Description: as §1, §2, §3

| SMILES | mean A at 516 nm (K562 cells; Docetaxel 0.333 nM (so in the source)) | mean A at 516 nm (K562 cells; Docetaxel 1 nM (so in the source)) | mean A at 565 nm (K562/Dox cells) | mean A at 565 nm (SkBr3-TxR cells; Lapatinib 0.001 μM, 72 h, pre-treated with […] LGT-E, background = 0.044) | mean A at 565 nm (SkBr3-TxR cells; Lapatinib 0.067 μM, 72 h, no LGT-E pre-treatment (control to Table 34), background = 0.044) | mean A at 565 nm (SkBr3-TxR cells; Lapatinib 0.067 μM, 72 h, pre-treated with […] LGT-E, background = 0.044) | mean A at 565 nm (SkBr3-TxR cells; Lapatinib 0.067 μM, no chemosensitizing pre-treatment (Table 33), background = 0.047) | mean A at 565 nm (SkBr3-TxR cells; Lapatinib 0.2 μM, 72 h, no LGT-E pre-treatment (control to Table 34), background = 0.044) | mean A at 565 nm (SkBr3-TxR cells; Lapatinib 0.67 μM, 72 h, pre-treated with […] LGT-E, background = 0.044) | mean A at 565 nm (SkBr3-TxR cells; Lapatinib 0.67 μM, no chemosensitizing pre-treatment (Table 33), background = 0.047) | mean A at 565 nm (SkBr3 cells) |
| --- | --- | --- | --- | --- | --- | --- | --- | --- | --- | --- | --- |
| CC(=O)O[C@@]12CO[C@@H]1C[C@H](O)[C@@]1(C)C(=O)[C@H](O)C3=C(C)[C@@H](OC(=O)[C@H](O)[C@@H](NC(=O)OC(C)(C)C)c4ccccc4)C[C@@](O)([C@@H](OC(=O)c4ccccc4)[C@H]21)C3(C)C [Docetaxel, docetaxel] | 2.257 | 1.547 | 1.683 |  |  |  |  |  |  |  |  |
| CS(=O)(=O)CCNCc1ccc(-c2ccc3ncnc(Nc4ccc(OCc5cccc(F)c5)c(Cl)c4)c3c2)o1 [lapatinib] |  |  |  | 2.214 | 2.207 | 2.051 | 2.345 | 2.136 | 1.681 | 2.109 | 2.056 |
